The values that follow come from PubChem BioAssay AID624370 (The Scripps Research Institute Molecular Screening Center, 2012).

The chains behind the UniProt entries cited, without tags or fusion partners.
UniProt O43353, whole entry, looked up: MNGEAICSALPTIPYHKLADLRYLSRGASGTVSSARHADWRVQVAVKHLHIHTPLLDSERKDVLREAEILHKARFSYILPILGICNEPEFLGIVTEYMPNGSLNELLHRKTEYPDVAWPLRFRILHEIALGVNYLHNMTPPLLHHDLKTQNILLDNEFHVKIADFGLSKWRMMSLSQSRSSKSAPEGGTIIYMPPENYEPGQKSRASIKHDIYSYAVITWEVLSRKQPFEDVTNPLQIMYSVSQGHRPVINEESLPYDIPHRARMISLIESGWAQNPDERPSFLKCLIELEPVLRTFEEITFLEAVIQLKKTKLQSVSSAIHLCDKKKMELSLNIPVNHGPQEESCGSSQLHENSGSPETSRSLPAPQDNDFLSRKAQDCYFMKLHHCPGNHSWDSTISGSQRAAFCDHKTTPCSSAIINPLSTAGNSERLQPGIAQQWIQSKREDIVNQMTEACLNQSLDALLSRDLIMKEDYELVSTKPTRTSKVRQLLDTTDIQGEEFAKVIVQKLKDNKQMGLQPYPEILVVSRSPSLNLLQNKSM

Broadly, the inhibition is the change of the read-out against control, counted positive when it falls.

This is a selection; strong and weak results do not stand in their true shares. The source made the active and inactive calls.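 Rule for the calls: active = mean inhibition across replicates above a set limit taken from the earlier primary screen (cut at about 21% in these data); inactive = the rest.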

The test has as its target Receptor-interacting serine/threonine-protein kinase 2 (Homo sapiens) (UniProt O43353). Kind of test: NOD2-RIPK2 binding disruptors, retest, confirmation, fluorescence, CHO cells, BLA complementation, triplicate (AID 624370).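 Note: 0% = DMSO-only wells and the high end = clavulanate BLA-blocked wells.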 The conditions noted are these: CCF4 FRET, at 4.98 µM, hits give high values.
As to `CN(C)C(=O)c1cc([N+](=O)[O-])cc2c1-c1c(cc([N+](=O)[O-])cc1[N+](=O)[O-])C2=O`, the inhibition is active: 51.1%.
To `C[N+]1=C2C=CC=CC=C2SC12C([N+](=O)[O-])=CC([N+](=O)[O-])=C[C-]2[N+](=O)[O-]` (configuration not stated) belongs inactive: 13.9%.
